Only some compounds are listed: those with a hit (about 13% of all), similar ones and a draw of the others.
LMNA splice mod: changes lamin A minigene splicing in HeLa cells. HeLa LMNA splicing GFP/RFP minigene ratio, 48 h. Potency, µM (series often up to 46.1 µM), inactives show top-dose ratio change, negative = inhibition, usual class: inhibitors. 0.01% of 200,000 active; active = well fitted inhibition curve with a large enough effect in the signal ratio, with a control signal flat, not every such curve was filed as active; inconclusive = small, poorly fitted or top-dose-only effect, or effect the other way, or a change in a side signal; the % refers to the signal ratio; also: potency is read from the fitted curve at half-maximal effect; % is scaled to controls: 0 for no effect and ±100 for the full control effect
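S3 HeLa cells stably expressing lamin A-EGFP splicing minigene plus DsRed2, 600 cells/well, 48 h compound exposure at 37C. Laser-scanning cytometry; analysed as GFP (500-530 nm)/RFP (575-640 nm) total intensity ratio; 0.5% DMSO vehicle.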
KDM4E inh: JMJD2E (human) inhibition; 1.6% of 230,000 active; AID 2147; JMJD2E catalytic domain, FDH-coupled NADH fluorescence (FDH is formaldehyde dehydrogenase); Potency, µM (titrated, usually from 57.1 µM), without a hit: at the highest dose activity change, negative = inhibition, actives largely listed as inhibitors; active = well fitted inhibition curve with a large enough effect, not every such curve was filed as active; inconclusive = small, poorly fitted or top-dose-only effect, or another doubt; inactive = no such curve, though single readings can be large or run the other way;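 also: potency is read from the fitted curve at half-maximal effect; 0% = wells with enzyme and -100% = buffer wells without enzyme; nearly all actives have a fitted effect of over 50% in size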
ALDH1A1 inh: inhibitors of human aldehyde dehydrogenase 1A1; Potency, µM (highest dose often 75.3 µM), inactives show at the top dose activity, negative = inhibition, usual class: inhibitors; AID 1030; 7.3% of 220,000 active; P00352; Purified ALDH1A1, NADH fluorescence, propionaldehyde substrate; active = well fitted inhibition curve with a large enough effect, not every such curve was filed as active; inconclusive = small, poorly fitted or top-dose-only effect, or another doubt; inactive = no such curve, though single readings can be large or run the other way;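 also: potency is read from the fitted curve at half-maximal effect; plate controls were no enzyme wells and a reference inhibitor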
Sfp PPTase inh: inhibitors of Bacillus subtilis Sfp phosphopantetheinyl transferase. Q9F4F7. Biochemical Sfp PPTase activity, qHTS. Potency, µM, for the others: max response, negative = inhibition, most hits filed as inhibitors. actives 3.5% (n = 310,000). AID 1490; active means well fitted inhibition curve with a large enough effect; inconclusive means small, poorly fitted or top-dose-only effect, or another doubt; inactive means no such curve, though single readings can be large or run the other way;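 further: the enzyme is Sfp with the accession as filed and its product quenches rhodamine fluorescence; potency means the concentration at half of the fitted maximal effect; 0% = enzyme reaction without inhibitor and -100% = no enzyme wells; top concentration of the series not given in the record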
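Compounds were incubated with enzyme (final 15 nM) for 15 min at room temperature before substrate addition started the reaction. Fluorescence at 525 nm excitation, 598 nm emission was recorded immediately and after 30 minutes.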
G9a block: G9a (human) methyltransferase inhibition; Q96KQ7; G9a H3K9 monomethylation, AlphaScreen, 2 h; Potency, µM (titrated, usually from 102 µM), for inactives: at the top dose activity, negative = inhibition, hits mostly inhibitors; 8.8% of 350,000 active; AID 504332; also: potency is read from the fitted curve at half-maximal effect; % is scaled to controls: 0 for no effect and ±100 for the full control effect; nearly all actives have a fitted effect of over 75% in size
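Readings reflect AlphaScreen signal from monomethyl-H3K9 antibody detection. HMT at 20 nM; substrate b-H3K9 500 nM; cofactor SAM 20 uM; 2 h RT reaction; compounds tested as titrations in qHTS with 15 min preincubation.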
miR-21 reporter: raises the signal of a miR-21 reporter; AID 2288; 340,000 tested, under 10 active; Potency, µM (doses to about 38.3 µM), inactives show at the top dose reporter change, positive = more light; HeLa miR-21 FLuc reporter, luciferase, 48 h; active = well fitted rising curve with a large enough effect; inconclusive = small, poorly fitted or top-dose-only effect; inactive = no such curve, though single readings can be large or run the other way;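 note: % of control where 0% means no effect; miR-21 action dims this reporter so a rising signal means less miR-21 action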
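HeLa miR-21-FLuc reporter line, endogenous miR-21; 2000 cells/well in DMEM/10% FBS; compound titration up to ~40uM final, 48 h, 37 degree Celsius; luciferase detection reagent, 15 min lysis, CCD luminescence.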
* = called active by the depositor; ? = inconclusive; · = not tested or not shown; [ ] = remark or other dose. Unless noted, calls follow the shape of the dose curve; as a rule, active = well fitted curve in the direction sought with a large enough effect; inconclusive = small, poorly fitted or top-dose-only effect, or another doubt; inactive = no such curve, though single readings can be large; an effect the other way counts as inactive or inconclusive.

SMILES	LMNA splice mod	KDM4E inh	ALDH1A1 inh	Sfp PPTase inh	G9a block	miR-21 reporter
O=C(NCCN1CCCC1)c1ccc(Cc2nc3ccccc3[nH]2)cc1	·	·	8.7%	·	·	·
O=C(COC(=O)Cn1cnc2ccccc21)Nc1ccc2c(c1)OCCO2	3.0%	0.1%	28.2µM*	10.7%	23.0%[59 µM]	-2.8%
CCN(CC)S(=O)(=O)c1cc(NC(=O)COC(=O)Cn2cnc3ccccc32)ccc1C	8.0%	2.5%	20µM*	-8.2%	?	-0.6%
O=C(COC(=O)c1cccc(F)c1)Nc1ccc2c(c1)OCCO2	·	·	·	·	-24.4%[59 µM]	·
COc1cc(Cl)c(C)cc1NC(=O)COC(=O)c1cc[n+]([O-])cc1	26.9%[46 µM]	15.1%	15.8µM*	6.1%	15.5%	4.2%
O=C(COC(=O)c1cc[n+]([O-])cc1)Nc1ccc2c(c1)OCCO2	-2.9%	-8.0%	14.1µM*	19.9%	-33.1%[59 µM]	-5.7%
COc1ccc(C(CNC(=O)COc2cccc(C(F)(F)F)c2)N2CCCC2)cc1 (stereo not drawn)	·	·	·	·	-2.8%[12.7 µM]	·
Nc1ccc(C(=O)NCCCSc2ccccc2)cc1[N+](=O)[O-]	·	·	·	9.8%	2.8%[59 µM]	5.0%
CCOC(=O)c1c(C)[nH]c(C(=O)OCc2ccccc2)c1C	·	·	·	21.8%	17.5%	-52.5%
CCOC(=O)c1c(C)[nH]c(N=Nc2ccccc2C)c1C	-6.5%	0.5%	-0.8%	3.7%	15.8µM*	-34.1%
CCOC(=O)c1c(C)[nH]c(N=Nc2cc(C(=O)O)cc(C(=O)O)c2)c1C	·	-8.8%	·	-1.8%	-22.7%[59 µM]	-0.3%
CCOC(=O)c1c(C)[nH]c(N=Nc2ccc(C)cc2C)c1C	?	0.6%	?	?	44.7µM*	-66.9%
CC(C)(C)c1ccc(C(=O)NC2CCN(Cc3ccccc3)CC2)cc1	·	·	·	13.5%	-2.2%	6.6%
O=c1c2c(-c3ccco3)csc2nc(SCc2cn3cccnc3n2)n1-c1ccccc1	?	?	?	17.8µM*	?	-47.9%
COc1ccccc1CN1CCCC2(CCN(C(=O)c3cccn3C)CC2)C1	·	·	8.1%	-4.7%	7.2%[12.7 µM]	·
CCOC(=O)CC(=O)CSc1ncnc2c1cnn2-c1ccccc1	1.0%	-13.7%	22.4µM*	-3.9%	-16.0%	-37.3%
CCOC(=O)N1CCN(C(=O)c2ccc(Oc3ccc([N+](=O)[O-])cc3)cc2)CC1	·	-15.6%	-3.7%	3.9%	-14.8%	5.2%
CCOc1ccc(-c2cc(C(=O)NCCCN3CCCC3)c3ccccc3n2)cc1	·	·	·	-2.4%	?	-38.2%
CC(C)(C)c1cc(CCC(=O)NCc2cccnc2)cc(C(C)(C)C)c1O	·	·	·	22.4µM*	·	0.3%
CC(C)NS(=O)(=O)c1ccc(CCC(=O)NCc2cccnc2)cc1	5.4%	4.0%	9.4%	2.9%	-9.7%[59 µM]	-1.4%
O=C(CCc1ccc(S(=O)(=O)NC2CCCCC2)cc1)NCc1cccnc1	-27.5%[46 µM]	6.2%	12.6µM*	19.2%	3.0%	-10.5%
CC(C)(Oc1ccc(-c2ccco2)cc1)C(=O)O	-2.0%	?	?	35.5µM*	?	-0.8%
CN(C)S(=O)(=O)Nc1ccccc1F	·	1.7%	-3.3%	-4.4%	·	-1.8%
Cc1ccc2nc3c(nc2c1C)CCCC3	·	·	·	9.4%	38.8%[0.501 µM]	1.4%
Cc1ccc2nc3c(nc2c1C)C(O)=C3O	·	?	·	-15.9%	12.6µM*	-4.6%
CCOC(=O)c1c(C)n(OCc2ccccc2)c2ccc3c(no[n+]3[O-])c12	20.1%	7.4%	4.2%	79.4µM*	-6.5%[59 µM]	-7.7%
Fc1ccccc1-c1nnc2ccc3ccccc3n12	·	·	·	3.7%	-8.9%[0.501 µM]	-12.8%
Fc1cccc(Cl)c1-c1nnc2ccc3ccccc3n12	?	-5.9%	13.3%	-11.0%	31.6µM*	-11.2%
COC(=O)c1sc(=S)n(Cc2ccccc2)c1C	·	10.4%	8.91µM*	-8.7%	69.8%	-0.8%
CC(=O)c1sc(=S)n(Cc2ccccc2)c1C	·	·	·	8.9%	-0.9%	-4.2%
CC(=O)Nc1ccc(S(=O)(=O)N2CCN(S(=O)(=O)c3ccccc3)CC2)cc1	·	·	·	20.3%	2.8%	1.1%
CS(=O)(=O)N1CCN(CC2CC3C=CC2C3)CC1 (stereo not drawn)	13.4%	?	-4.1%	2.4%	?	-6.9%

Compound profiles (already shown).
Shown for CS(=O)(=O)N1CCN(CC2CC3C=CC2C3)CC1 (stereo not drawn) → LMNA splice mod = 13.4%; KDM4E inh = ?; ALDH1A1 inh = -4.1%; Sfp PPTase inh = 2.4%; G9a block = ?; miR-21 reporter = -6.9%
Shown for COc1ccc(C(CNC(=O)COc2cccc(C(F)(F)F)c2)N2CCCC2)cc1 (stereo not drawn) → LMNA splice mod = ·; KDM4E inh = ·; ALDH1A1 inh = ·; Sfp PPTase inh = ·; G9a block = -2.8%[12.7 µM]; miR-21 reporter = ·

Part of the list above in order of length of the SMILES, descending:
SMILES	LMNA splice mod	KDM4E inh	ALDH1A1 inh	Sfp PPTase inh	G9a block	miR-21 reporter
Fc1cccc(Cl)c1-c1nnc2ccc3ccccc3n12	?	-5.9%	13.3%	-11.0%	31.6µM*	-11.2%
Cc1ccc2nc3c(nc2c1C)C(O)=C3O	·	?	·	-15.9%	12.6µM*	-4.6%
Cc1ccc2nc3c(nc2c1C)CCCC3	·	·	·	9.4%	38.8%[0.501 µM]	1.4%

From PubChem BioAssay
